Values quoted from earlier work, collected in publication PMC8967716, “Inhibition of calcium-triggered secretion by hydrocarbon-stapled peptides” (Nature, 2022).

Sequences of proteins named here, by UniProt entry; tags and fusion partners are left off.
UniProt P32851, whole entry, chain 1 of 3: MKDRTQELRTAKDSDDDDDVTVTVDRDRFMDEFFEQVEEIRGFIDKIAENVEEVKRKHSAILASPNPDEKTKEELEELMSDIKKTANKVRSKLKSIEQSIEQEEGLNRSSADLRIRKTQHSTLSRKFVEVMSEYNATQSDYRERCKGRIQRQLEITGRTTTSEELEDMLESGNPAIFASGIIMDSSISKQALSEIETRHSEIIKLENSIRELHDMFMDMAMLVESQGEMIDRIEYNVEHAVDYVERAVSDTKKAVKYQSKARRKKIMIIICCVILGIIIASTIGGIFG
UniProt P21707, whole entry: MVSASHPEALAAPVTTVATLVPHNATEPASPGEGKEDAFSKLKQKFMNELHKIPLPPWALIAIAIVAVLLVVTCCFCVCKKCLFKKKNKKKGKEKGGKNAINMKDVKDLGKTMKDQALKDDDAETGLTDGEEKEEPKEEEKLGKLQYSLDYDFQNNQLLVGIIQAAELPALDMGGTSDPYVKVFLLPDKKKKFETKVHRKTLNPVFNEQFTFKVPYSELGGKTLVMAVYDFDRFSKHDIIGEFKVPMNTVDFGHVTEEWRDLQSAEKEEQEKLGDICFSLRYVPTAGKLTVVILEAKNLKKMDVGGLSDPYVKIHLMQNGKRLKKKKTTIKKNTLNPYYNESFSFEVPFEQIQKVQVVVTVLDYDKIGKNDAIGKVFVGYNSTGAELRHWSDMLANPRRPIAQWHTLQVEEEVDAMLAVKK

Target: SNARE complex (Rattus norvegicus) (UniProt P32851)
Conditions: cited from earlier work

Question: For Syt1 (from UniProt P21707), which Kd is on record?
Answer: The Kd was 20 µM.
